These results are taken from US8940271B2, “Transmucosal administration of drug compositions for treating and preventing disorders in animals” (Abbott Laboratories, priority 2005, dated 2015).

The data set in a line: Meloxicam solubility in various solvents. The format is physicochemical. The settings on record: solvents of Table 2.

In the case of `Cc1cnc(NC(=O)C2=C(O)c3ccccc3S(=O)(=O)N2C)s1` [Meloxicam, 4-hydroxy-2-methyl-N-(5-methyl-2-thiazolyl)-2H-1,2-benzothiazine-3-carboxamide-1,1-dioxide], the “dissolution upon addition of very small amounts of 1 M NaOH solution” value is given as “completely dissolved”.
